These results are taken from ChEMBL document CHEMBL3297660, “Combination of cyclohexane and piperazine based κ-opioid receptor agonists: Synthesis and pharmacological evaluation of trans,trans-configured perhydroquinoxalines” (Bioorg Med Chem, 2014).

The chains behind the UniProt entries cited, without tags or fusion partners. Where a name states a change or a piece, a line headed by the entry shows the natural chain unless it says otherwise.
UniProt P41144: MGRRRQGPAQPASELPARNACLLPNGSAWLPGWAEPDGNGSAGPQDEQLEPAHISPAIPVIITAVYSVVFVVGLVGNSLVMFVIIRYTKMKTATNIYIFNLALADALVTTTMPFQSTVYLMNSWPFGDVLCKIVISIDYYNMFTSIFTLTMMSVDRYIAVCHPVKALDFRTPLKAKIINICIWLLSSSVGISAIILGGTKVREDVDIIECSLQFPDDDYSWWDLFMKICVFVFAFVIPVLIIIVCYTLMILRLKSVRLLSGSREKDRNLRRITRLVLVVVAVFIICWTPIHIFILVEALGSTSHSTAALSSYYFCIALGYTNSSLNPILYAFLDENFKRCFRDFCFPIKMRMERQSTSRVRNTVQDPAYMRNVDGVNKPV
UniProt P35372, whole entry, looked up: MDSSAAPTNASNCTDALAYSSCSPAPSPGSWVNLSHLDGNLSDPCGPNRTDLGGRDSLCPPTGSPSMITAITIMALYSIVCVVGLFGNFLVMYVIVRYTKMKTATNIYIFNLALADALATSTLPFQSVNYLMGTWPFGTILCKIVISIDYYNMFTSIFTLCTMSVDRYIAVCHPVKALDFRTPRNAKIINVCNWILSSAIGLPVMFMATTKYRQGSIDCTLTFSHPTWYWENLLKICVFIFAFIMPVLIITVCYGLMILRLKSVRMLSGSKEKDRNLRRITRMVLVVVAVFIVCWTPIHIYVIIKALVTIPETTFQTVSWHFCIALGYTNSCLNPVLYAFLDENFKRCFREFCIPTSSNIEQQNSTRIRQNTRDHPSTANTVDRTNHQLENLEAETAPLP
UniProt P41143, whole entry, looked up: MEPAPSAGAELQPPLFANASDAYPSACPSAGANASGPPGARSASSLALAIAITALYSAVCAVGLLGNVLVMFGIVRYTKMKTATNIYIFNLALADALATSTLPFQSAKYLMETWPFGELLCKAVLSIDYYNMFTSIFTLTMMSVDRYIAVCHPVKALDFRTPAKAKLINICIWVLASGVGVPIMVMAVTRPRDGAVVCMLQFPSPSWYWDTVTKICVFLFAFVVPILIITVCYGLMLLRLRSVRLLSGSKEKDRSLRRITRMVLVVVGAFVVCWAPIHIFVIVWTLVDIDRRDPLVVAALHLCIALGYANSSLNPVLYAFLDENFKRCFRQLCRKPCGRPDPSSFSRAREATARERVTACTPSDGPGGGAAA
UniProt P41145: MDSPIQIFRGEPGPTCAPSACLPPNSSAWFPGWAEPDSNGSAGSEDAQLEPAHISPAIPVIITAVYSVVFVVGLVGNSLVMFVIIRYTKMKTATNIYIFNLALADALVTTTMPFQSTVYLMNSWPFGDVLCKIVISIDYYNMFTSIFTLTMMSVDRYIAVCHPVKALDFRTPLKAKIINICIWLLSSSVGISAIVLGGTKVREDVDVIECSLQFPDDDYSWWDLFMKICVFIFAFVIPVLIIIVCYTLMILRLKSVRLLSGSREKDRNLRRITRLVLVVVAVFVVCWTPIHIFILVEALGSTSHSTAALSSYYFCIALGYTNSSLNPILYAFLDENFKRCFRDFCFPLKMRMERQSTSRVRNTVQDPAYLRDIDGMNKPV
UniProt Q60492, whole entry, looked up: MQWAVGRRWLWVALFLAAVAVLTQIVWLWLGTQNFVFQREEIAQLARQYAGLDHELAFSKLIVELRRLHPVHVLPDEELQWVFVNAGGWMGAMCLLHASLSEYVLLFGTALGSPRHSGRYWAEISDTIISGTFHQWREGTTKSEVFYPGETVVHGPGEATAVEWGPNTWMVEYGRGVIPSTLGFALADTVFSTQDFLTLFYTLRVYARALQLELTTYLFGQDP

For test [1], the target named is Kappa-type opioid receptor (Cavia porcellus, UniProt P41144). The test is described as follows: Displacement of [3H]U-69593 from kappa-opioid receptor in guinea pig brain membrane. (In general: In a radioligand displacement assay an active substance lowers the binding of a labelled ligand.)
The target in another test is Mu-type opioid receptor (Homo sapiens, UniProt P35372). The test is described as follows: Displacement of [3H]-naloxone from human mu-opioid receptor transfected in CHO-K1 cell by scintillation counting.
The target in test [2] is Delta-type opioid receptor (Homo sapiens, UniProt P41143). The test is described as follows: Displacement of [3H]-deltorphin 2 from human delta-opioid receptor transfected in CHO-K1 cell by scintillation counting.
Test [3] has as its target Kappa-type opioid receptor (Homo sapiens, UniProt P41145). The test can be described thus: Agonist activity at recombinant kappa-opioid receptor in human HEK293 cells by [35S]-GTP-gammaS binding assay. On the technique in general: GTPγS resists hydrolysis and so accumulates on activated G proteins.
The target in test [4] is Sigma non-opioid intracellular receptor 1 (Cavia porcellus, UniProt Q60492). The test is described as follows: Displacement of [3H]-(+)-Pentazocine from sigma1 receptor in guinea pig brain membrane.

A word on the Ki: it is the dissociation constant of the complex between target and ligand, obtained from inhibition or displacement. The low end stands for higher affinity, the high end for lower affinity. By IC50 is commonly meant the midpoint of a concentration-inhibition curve. In test [1], `O=C(Cc1ccc(Cl)c(Cl)c1)N1CCN[C@@H]2CCC[C@H](N3CCCC3)[C@H]21` had an inhibitory constant (Ki) of 2.1 nM. For the same molecule, the IC50 (on Mu-type opioid receptor; in test [2]) was > 1000 nM each time.

As to `COC(=O)N1CCN(C(=O)Cc2ccc(Cl)c(Cl)c2)[C@H]2[C@H]1CCC[C@@H]2N1CCCC1`, the IC50 (on Mu-type opioid receptor; in test [2]) was > 1000 nM each time.

`O=C(Cc1ccccc1)N1CCN[C@@H]2CCC[C@H](N3CCCC3)[C@H]21` came in with a Ki in test [1] of 435 nM. The IC50 (at Mu-type opioid receptor; in test [2]) was > 1000 nM each time.

`CN(C(=O)Cc1ccc(Cl)c(Cl)c1)C1CCCCC1N1CCCC1` (stereo not drawn) gave an inhibition constant (Ki) in test [1] of 0.34 nM.

On to `CN(C(=O)Cc1ccccc1)[C@H]1CC[C@@]2(CCCO2)C[C@@H]1N1CCCC1`, for which the inhibition constant Ki in test [1] turned out to be 0.88 nM.

In general, EC50 refers to the midpoint of the concentration-response curve. Take `O=C(Cc1ccc(Cl)c(Cl)c1)N1CCN(Cc2ccccc2)[C@@H]2CCC[C@H](N3CCCC3)[C@H]21`: the EC50 in test [3] came out at 490 nM. The IC50 (on Mu-type opioid receptor; in test [2]) was > 1000 nM in each case.

For `O=C1N[C@@H]2[C@@H](NCc3ccc(Cl)cc3)CCC[C@H]2N(Cc2ccc(Cl)cc2)C1=O`, the inhibitory constant (Ki) in test [4] turned out to be 543 nM.

In test [1], `O=C(Cc1ccccc1)N1CCN(Cc2ccccc2)[C@@H]2CCC[C@H](N3CCCC3)[C@H]21` came in with an inhibitory constant (Ki) of 129 nM. Also, the 50% inhibitory concentration (IC50) (at Mu-type opioid receptor; in test [2]) was > 1000 nM each time.

On to `COc1ccc(CN[C@H]2CCC[C@@H]3[C@@H]2NC(=O)C(=O)N3Cc2ccc(OC)cc2)cc1`, for which, in test [4], the affinity, expressed as Ki, was 368 nM.
